Measurements reported in patent publication US20090163452A1, “COMPOSITIONS AND METHODS FOR LOWERING SERUM CHOLESTEROL” (priority 2007, published 2009).

Settings: during the On-D period; 16 subjects; chronic constipation in one, irritable bowel syndrome in the other

vitamin D
Constipation reported (subjects): two
